Reference: patent US20070110715A1, “Treatment of alzheimer's disease” (Ares Trading S.A., priority 2003, published 2007)

Columns and labels:
early-onset AD patients [1] = assay: Effect of IFN-β in combination with an AChEI in early-onset AD patients (Example 1); format: in vivo, human; settings: IFN-β plus ChEI
Method: The effect of IFN-β in combination with an AChEI on AD disease development is performed on 40 early-onset AD patients.
The clinical efficacy of IFN-β-1a (Rebif® 22 μg, tiw) in the treatment of AD is evaluated by measuring changes in neuropsyhological performance from baseline.
This 6-month, single-center, pivotal study is performed on 40 early-onset AD patients. Subjects are randomized into two groups: the first group (n=20) receiving Rebif® 22 μg tiw plus an acetylcholinesterase inhibitor (e.g., donepezil, rivastigmine, galantamine, etc.); the second group (n=20) receiving a placebo plus an acetylcholinesterase inhibitor. […]
The trial is designed as a pilot investigation of the clinical utility of Rebif® 22 μg tiw in combination with an acetylcholinesterase inhibitor in the treatment of AD; sample size was chosen based on feasibility for a single-site study. Continuous variables, including cognitive and behavioral scores, am analysed by measuring changes from baseline; analysis of variance is used to compare between-group differences. Side effects are analysed using descriptive statistics and non-parametric tests.
Outcome measures are assessed at baseline, week 12, and week 25 (study completion). […]

early-onset AD patients [2] = assay: Effect of IFN-β in early-onset AD patients (Example 2, placebo-controlled clinical study); format: in vivo, human; settings: for effect on clinical severity / clinical signs of early-onset Alzheimer's disease: IFN-β administered alone or in combination with a cholinesterase inhibitor, early-onset AD patients
Method: The effect of IFN-β on AD disease development is performed on 40 early-onset AD patients.
The clinical efficacy of IFN-β-1a (Rebif® 22 μg, tiw) in the treatment of AD is determined by measuring differences in neuropsychological performance changes into two treatment arms (placebo and treatment) from baseline to 28-week treatment follow-up.
This 52-week, single-center, pivotal study is performed on 40 early-onset AD patients. Subjects are randomized into two groups: the first group (n=20) receiving Rebif® 22 μg tiw; the second group (n=20) receiving a placebo. The treatment period is ended after 28 weeks.
Forty patients are randomly assigned in a double-blind, controlled, parallel groups study comparing interferon beta treatment to placebo in patients with Alzheimer's dementia.
Based on the primary objectives of the study (calculated using MMSE and ADAS-cog scores to assess cognitive decline), the null hypothesis is that interferon beta will not stop the progressive decline in cognitive function typical of the natural history of Alzheimer's dementia. In other words, after 12 months of treatment, the MMSE and ADAS-cog scores of patients randomized to receive interferon beta therapy will be similar to those of patients who receive placebo treatment.
For this protocol, patients with an MMSE score equal to 20±5 were enrolled. Sample analyses assumed a clinically relevant effect size coinciding with a standard deviation (SD) respective to mean MMSE and ADAS-cog scores in cohorts of patients enrolled in previous randomized clinical trials. MMSE is a scale with a range from 0 to 30 decreasing with cognitive impairment, abnormal under the value of 26/30 age and education adjusted. ADAS-cog is a test with a score from 0 to 70 that increase with the impairment of cognitive functions, abnormal up a value of 9.5/70. […]
With regards to the primary objective of the effect of interferon beta on cognitive decline evaluated using ADAS-cog, it has been reported in the literature that MMSE scores correspond with ADAS-cog scores (Doraiswamy P M, Bleper F, Kalser L, Krishnan K R, Reuning-Scherer J, Gulanski B. The Alzheimer's disease assessment scale: patterns and predictors of baseline cognitive performance in multicenter Alzheimer's disease trials. Neurology 1997;48:1511-1517). […]
Outcome measures are assessed at baseline, week 12, week 28, and 52 (study completion). […]

IFN-β: Rebif® is recombinant human interferon (IFN)-beta 1a, produced from mammalian cell lines
effect on therapeutic activity of cholinesterase inhibitors (early-onset AD patients [1]): synergetically enhancing the therapeutic activity of cholinesterase inhibitors | effect on clinical severity / clinical signs of early-onset Alzheimer's disease (early-onset AD patients [2]): significantly reduces clinical signs of the disease | effect on clinical severity / clinical signs of early-onset Alzheimer's disease (early-onset AD patients [2]; listed as interferon-β): pronounced beneficial effect | expected mean MMSE score (early-onset AD patients [2]; patients treated with interferon beta, if null hypothesis is false, SD=5, expected placebo score 15.2): 20.2 | expected mean ADAS-cog score (early-onset AD patients [2]; patients treated with interferon beta, if null hypothesis is false, SD=10, placebo about 36.5): 26.5
